Biological target: T1, β-glucocerebrosidase (GCase) (Homo sapiens, UniProt P04062)
T1 sequence (P04062 40-536): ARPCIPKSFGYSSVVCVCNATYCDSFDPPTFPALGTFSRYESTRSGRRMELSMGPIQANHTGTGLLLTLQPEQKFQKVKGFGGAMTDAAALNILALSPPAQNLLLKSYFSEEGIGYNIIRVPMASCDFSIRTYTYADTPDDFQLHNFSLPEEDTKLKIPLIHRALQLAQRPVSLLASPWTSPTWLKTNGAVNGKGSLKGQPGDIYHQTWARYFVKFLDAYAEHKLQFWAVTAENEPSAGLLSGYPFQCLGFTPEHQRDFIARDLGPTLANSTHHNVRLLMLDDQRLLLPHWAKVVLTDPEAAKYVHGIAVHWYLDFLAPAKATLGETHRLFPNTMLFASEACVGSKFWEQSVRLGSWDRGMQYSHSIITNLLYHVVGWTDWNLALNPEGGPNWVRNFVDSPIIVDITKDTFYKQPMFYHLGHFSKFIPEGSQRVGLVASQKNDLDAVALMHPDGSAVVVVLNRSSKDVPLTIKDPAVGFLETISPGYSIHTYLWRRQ
Type: cell-based

**Q.** `O[C@H]1[C@H](O)CNC[C@@H]1C(F)F` [AT3375] was tested. Which IC50 did it give?
**A.** 0.011 ± 0.002 µM

Source: paper PMC12223415 (RSC Chemical Biology, 2025)
